Measurements taken from PubChem BioAssay AID2302 (GlaxoSmithKline (GSK), 2010).
The list shows a part of the results, in another mix than the full data. Activity calls are given as the source filed them.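 The calls were made as follows: active = growth inhibition above 50% at the single 2 µM test dose, taken to imply half-maximal potency below 2 µM; inactive = the rest.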

Test: antimalarial activity against Dd2 strain (AID 2302);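 also: 0% = DMSO untreated growth and 100% = chloroquine plus artemisinin killed control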
Conditions: P. falciparum Dd2 in RBCs, LDH growth readout, 72 h; at 2 µM; stronger effect = higher value

| Compound | growth inhibition |
| --- | --- |
| CCN1CCCC1COC(=O)C(O)(c1ccc2c(c1)OCO2)c1ccc2c(c1)OCO2 (configuration not stated) | inactive: -1% |
| CCN1CCCC(OC(=O)C(O)(c2ccc3c(c2)OCO3)c2ccc3c(c2)OCO3)C1 (configuration not stated) | inactive: 7% |
